Data on one compound can be found in PubChem BioAssay AID2305 (GlaxoSmithKline (GSK), 2010).

The test relates to P. falciparum 3D7 growth, pLDH absorbance. The experiment in a line: blood-stage malaria parasite growth potency – strain 3D7, dose response (AID 2305).

As usually defined, the IC50 is the midpoint of a concentration-inhibition curve. High values mean weaker potency, low ones greater potency.

Structures are written as SMILES.

In the case of `COc1cc(C(=O)NC(SC2=NCCS2)C(Cl)(Cl)Cl)cc(OC)c1OC` (stereo unspecified), the IC50 was determined as 980 nM. In other words, the sub-micromolar range.
